# Measured values from US9493464B2, “Wee1 degradation inhibitors” (The Scripps Research Institute, priority 2012, dated 2016).
# Columns and labels:
# [1] = tested on: cerebellar granule cell progenitors (GCPs); experiment: In vitro proliferation of cerebellar granule cell progenitors (3H-thymidine uptake); type: cell-based, mouse; details: SR-1277 versus SR-653234
# Experimental: GCPs were incubated with DMSO, 5 μM D4476 (known CK1δ and CK1ε inhibitor), or 50 μM D4476 and processed for ^3H-thymidine incorporation after 24 hours. A representative experiment performed in triplicate is shown.
# [2] = tested on: 296 kinases; experiment: Kinase profile of 296 kinases (Reaction Biology Corporation); type: biochemical
smiles,measurement,setting,value
O=[N+]([O-])c1cccc2[nH]c(CNc3nc(N4CCOCC4)nc4c3ncn4-c3ccsc3)nc12 [SR-1277],potency as inhibitor of GCP proliferation relative to SR-653234,[1],5-10 times
same,selectivity among 296 kinases,[2],highly selective for casein kinase
